Key:
Staphylococcus aureus [1] = details: ATCC 29213
Staphylococcus aureus [2] = details: ATCC 29213; remark: listed apart in the source
Pseudomonas aeruginosa = details: PAO1

Measured: MIC

GENTAMICIN
0.5 µg/mL: all assays above
